Assay results published in US20210198354A1.

Assays:
[1] = biological target: Tumor Necrosis Factor-alpha (TNF-α) (human) (UniProt P01375); assay: indirect ELISA on coated TNF-α, screening of combinations, duplicate wells
[2] = biological target: IL-1α (UniProt P01583); assay: indirect ELISA, cytokine coated at 1000 ng/ml, duplicate wells
[3] = biological target: rhTNFβ (human) (UniProt P01374); assay: as above
[4] = biological target: IL-1β (UniProt P01584); assay: as above
[5] = biological target: Tumor Necrosis Factor-alpha (TNF-α) (human) (UniProt P01375); assay: as above
[6] = biological target: IL-4 (UniProt P05112); assay: as above
[7] = biological target: IL-8 (UniProt P10145); assay: as above
[8] = biological target: rIFN γ (UniProt P01579); assay: as above
[9] = biological target: IL-2 (UniProt P60568); assay: as above
[10] = biological target: Tumor Necrosis Factor-alpha (TNF-α) (human) (UniProt P01375); assay: indirect ELISA, TNF-α coated at 300 ng/ml

Substance: L0h5 (antibody; other documents disagree on this pair)
OD [1]: 1.03 OD and 0.873 OD

Substance: L0h1 (antibody; other documents disagree on this pair)
OD [1]: 2.16 OD and 2.18 OD

Substance: L0h3 (antibody; other documents disagree on this pair)
OD [1]: 0.68 OD and 0.768 OD

Further lines, with some results ahead:

OD [2]: 0.08 OD and 0.072 OD
Substance: L0h4 (antibody)

OD [3]: 0.064 OD and 0.058 OD
OD [4]: 0.059 OD and 0.068 OD
OD [6]: 0.055 OD and 0.049 OD
OD [7]: 0.067 OD and 0.06 OD
OD [8]: 0.062 OD and 0.068 OD
OD [9]: 0.074 OD and 0.069 OD
Substance: L0h4 (antibody; other documents disagree on this pair)
OD [5]: 3.34 OD and 3.24 OD
OD [1]: 3.34 OD and 3.13 OD
pEC50 [10]: 9.43

OD [2]: 0.059 OD and 0.065 OD
Substance: Adalimumab (antibody)

OD [3]: 0.097 OD and 0.089 OD
OD [4]: 0.067 OD and 0.058 OD
OD [6]: 0.05 OD
OD [7]: 0.063 OD and 0.057 OD
OD [8]: 0.082 OD and 0.078 OD
OD [9]: 0.053 OD and 0.059 OD
Substance: Adalimumab (antibody; other documents disagree on this pair)

pEC50: −log10 of the molar value. Where “and” joins values, the source holds several entries; their conditions need not be identical. Equal entries are not always repeated. Each block holds one substance with its values, some of them ahead of it.
